Test results taken from patent US20040102362A1, “Protocol for paracentesis” (priority 2000, published 2004).
Where two headings read alike, the source gives them in different places.

Tested on: cirrhotic patients with tense ascites
Settings: for Aldosteronaemia: plasma aldosterone as marker of blood volume; for Reninaemia: plasma renin as marker of blood volume

For “Albumin: human albumin derived from donated human blood, given as 20% infusion”, which Aldosteronaemia (4-6 days later) is on record?
The Aldosteronaemia was 1420 ± 292 pg/mL.

And the Reninaemia (4-6 days later)?
Its Reninaemia is 223 ± 74 pg/mL.

What about the Aldosteronaemia (Before) of the same substance?
Its Aldosteronaemia is 1149 ± 324 pg/mL.

What about the Reninaemia (Before) of the same substance?
Its Reninaemia is 194 ± 47 pg/mL.

What about the Creatininaemia (human, in vivo) of the same substance?
Its Creatininaemia is 71 ± 6.

What about the Natraemia (human, in vivo) of the same substance?
The Natraemia was 132 ± 1 mmol/L.
